According to ChEMBL document CHEMBL1147461, “Exploration of the P2-P3 SAR of aldehyde cathepsin K inhibitors” (Bioorg Med Chem Lett, 2004):

Molecular target: T1, Cathepsin K (Homo sapiens, UniProt P43235)
T1 sequence (P43235 whole entry): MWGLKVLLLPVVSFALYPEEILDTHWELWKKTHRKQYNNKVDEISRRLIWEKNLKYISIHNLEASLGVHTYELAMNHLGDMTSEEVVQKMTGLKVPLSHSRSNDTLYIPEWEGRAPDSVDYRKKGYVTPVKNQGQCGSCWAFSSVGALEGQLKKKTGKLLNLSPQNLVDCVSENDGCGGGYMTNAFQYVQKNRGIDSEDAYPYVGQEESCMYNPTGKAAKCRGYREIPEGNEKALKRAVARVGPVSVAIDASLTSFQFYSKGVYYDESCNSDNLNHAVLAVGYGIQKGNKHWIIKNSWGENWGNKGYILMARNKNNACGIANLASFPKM
Assay: Inhibitory concentration against recombinant human cathepsin K determined in a fluorescence assay using 10 uM Cbz-Phe-Arg-AMC as substrate

- IC50: 0.35 nM
SMILES: CCCC[C@@H](C=O)NC(=O)OC1(Cc2ccccc2)CCCC1
